The results in this text go back to US6500430B1, “Product and process to regulate actin polymerization in T lymphocytes” (National Jewish Medical and Research Center, priority 1995, dated 2002).

The subject of the assay is TCR-ζ. Put plainly: Cell-free association of TCR-ζ with the actin cytoskeleton (detergent soluble lysate, newly polymerized pellet). It is filed as biochemical, murine. The method, then:
Freshly isolated murine thymocytes or lymph node T cells, or CD25/ζ-expressing T cell hybridomas, were washed 3 times in BSS and incubated in the presence or absence of cytochalasin D for 1.5 hrs at 4° C., solubilized with 0.5% NP-40 in a Tris buffered saline solution (TBS; 150 mM NaCl, 10 mM Tris, pH 7.3) containing protease and phosphatase inhibitors (0.2 mM VO3, 10 mM NaF, 1 mM PMSF, and 1 mg/ml each of Aprotinin, Leupeptin, and α-l-antitrypsin) and centrifuged at 10,000 rpm for 10 min to pellet the insoluble material. […] To increase actin polymerization, the Mg^2+ concentration was increased to 2 mM. […] Immunoprecipitation of the detergent soluble fraction with anti-TCR-ζ antibody was then performed as described in Example 4. The pellet and the anti-TCR-ζ immunoprecipitate were resolved by SDS-PAGE gel electrophoresis and immunoblotted with anti-TCR-ζ antibody.

Regarding MgATP, the “TCR-ζ binding to the pellet” value (MgATP concentrations below 0.1 mM) is on record as “Almost no binding”. Moreover, the “Time of incubation until association and depletion of TCR-ζ from solution was detected” value (exogenous MgATP) was at most 1 min. For the same substance, the “Time of optimal association of TCR-ζ with the pellet” value (time course experiments, 37° C.) lay within 10 to 15 min.
